Experiment: Cytotoxicity against human CEM-T4 cells assessed as reduction in cell viability after 7 days by MTT assay
Type: cell-based
Conditions: 168 h

**Q.** Which CC50 does the source give for `Cc1cn([C@H]2C[C@H](N=[N+]=[N-])[C@@H](COP(=O)(Nc3ccccn3)Oc3ccccn3)O2)c(=O)[nH]c1=O` (some centres undefined) here?
**A.** Its CC50 is 97 µM.

**Q.** For `Cc1cn([C@H]2C[C@H](N=[N+]=[N-])[C@@H](COP(=O)(Nc3ccccn3)Oc3ccncc3)O2)c(=O)[nH]c1=O` (some centres undefined), which CC50 is on record?
**A.** The CC50 was “Nd(Unstable)”.

**Q.** For `Cc1cn([C@H]2C[C@H](N=[N+]=[N-])[C@@H](COP(=O)(Nc3ccccn3)Oc3ccccc3)O2)c(=O)[nH]c1=O` (some centres undefined), which CC50 is on record?
**A.** The CC50 was greater than 135 µM.

**Q.** With `Cc1cn([C@H]2C[C@H](N=[N+]=[N-])[C@@H](COP(=O)(Nc3ccccn3)Oc3cccnc3)O2)c(=O)[nH]c1=O` (some centres undefined) as the compound, how does the CC50 read?
**A.** Its CC50 is 79 µM.

From ChEMBL document CHEMBL4411302, “Aryl H-phosphonates. 19. New anti-HIV pronucleotide phosphoramidate diesters containing amino- and hydroxypyridine auxiliaries” (Eur J Med Chem, 2019)
